For series [1], the system named is postoperative pain (hard tissue surgery). Nature of the series: Phase 2 clinical trial CLIN2003, bunionectomy, postoperative hard tissue pain.
Series [2] relates to postoperative pain (soft tissue surgery). Put plainly: Phase 2 clinical trial CLIN2002, laparoscopic hysterectomy, postoperative pain. The note with it: 0.04 mg/kg I.V. preoperatively and/or postoperatively.

Take `CC(C)C[C@@H](NC(=O)[C@@H](Cc1ccccc1)NC(=O)[C@H](N)Cc1ccccc1)C(=O)N[C@H](CCCCN)C(=O)N1CCC(N)(C(=O)O)CC1` [CR845, D-Phe-D-Phe-D-Leu-D-Lys-[ω(4-aminopiperidine-4-carboxylic acid)]—OH]: in series [1] (48 hour period), the “Mean fentanyl use versus placebo” value is reported as “no difference”. For the same molecule, the Safety and tolerability result in series [1] (repeated I.V. 0.005 mg/kg) was “safe and generally well tolerated”; in series [2], “safe and generally well tolerated”.
